Molecules are shown by their SMILES. pIC50: −log10 of the molar value. Where two headings read alike, the source gives them in different places. Where only a bound is given, the exact number is not on record here.

By UniProt entry, the sequences of proteins in these tests, tags left out. Where a name states a change or a piece, a line headed by the entry shows the natural chain unless it says otherwise.
UniProt P29597: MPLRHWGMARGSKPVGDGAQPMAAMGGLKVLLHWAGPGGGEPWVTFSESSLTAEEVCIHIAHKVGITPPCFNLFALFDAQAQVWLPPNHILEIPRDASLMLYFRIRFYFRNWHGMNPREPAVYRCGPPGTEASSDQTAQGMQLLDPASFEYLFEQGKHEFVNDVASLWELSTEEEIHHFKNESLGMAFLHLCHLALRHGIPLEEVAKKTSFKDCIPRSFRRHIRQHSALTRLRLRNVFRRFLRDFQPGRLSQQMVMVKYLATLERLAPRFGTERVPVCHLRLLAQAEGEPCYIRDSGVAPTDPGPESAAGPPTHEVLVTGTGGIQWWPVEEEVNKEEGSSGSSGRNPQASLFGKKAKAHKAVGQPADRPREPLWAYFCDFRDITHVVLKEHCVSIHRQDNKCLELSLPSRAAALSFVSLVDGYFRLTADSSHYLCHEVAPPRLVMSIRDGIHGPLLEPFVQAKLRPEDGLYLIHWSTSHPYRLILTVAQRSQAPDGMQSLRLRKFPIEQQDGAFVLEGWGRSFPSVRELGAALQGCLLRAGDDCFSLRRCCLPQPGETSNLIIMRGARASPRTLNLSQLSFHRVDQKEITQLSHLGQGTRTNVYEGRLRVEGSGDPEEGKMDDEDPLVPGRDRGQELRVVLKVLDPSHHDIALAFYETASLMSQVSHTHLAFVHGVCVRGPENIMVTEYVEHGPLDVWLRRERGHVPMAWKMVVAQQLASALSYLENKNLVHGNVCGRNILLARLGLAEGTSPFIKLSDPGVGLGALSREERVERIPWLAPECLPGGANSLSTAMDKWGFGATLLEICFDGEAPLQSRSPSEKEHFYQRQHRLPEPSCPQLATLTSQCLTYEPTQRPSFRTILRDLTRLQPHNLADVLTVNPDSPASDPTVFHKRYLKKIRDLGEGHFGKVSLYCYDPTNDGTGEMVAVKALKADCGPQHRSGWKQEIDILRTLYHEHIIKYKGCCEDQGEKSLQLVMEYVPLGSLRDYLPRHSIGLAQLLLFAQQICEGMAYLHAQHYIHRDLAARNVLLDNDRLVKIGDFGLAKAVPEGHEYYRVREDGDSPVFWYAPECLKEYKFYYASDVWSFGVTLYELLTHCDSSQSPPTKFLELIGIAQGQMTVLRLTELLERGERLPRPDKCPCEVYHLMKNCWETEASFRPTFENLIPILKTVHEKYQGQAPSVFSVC
UniProt P52333: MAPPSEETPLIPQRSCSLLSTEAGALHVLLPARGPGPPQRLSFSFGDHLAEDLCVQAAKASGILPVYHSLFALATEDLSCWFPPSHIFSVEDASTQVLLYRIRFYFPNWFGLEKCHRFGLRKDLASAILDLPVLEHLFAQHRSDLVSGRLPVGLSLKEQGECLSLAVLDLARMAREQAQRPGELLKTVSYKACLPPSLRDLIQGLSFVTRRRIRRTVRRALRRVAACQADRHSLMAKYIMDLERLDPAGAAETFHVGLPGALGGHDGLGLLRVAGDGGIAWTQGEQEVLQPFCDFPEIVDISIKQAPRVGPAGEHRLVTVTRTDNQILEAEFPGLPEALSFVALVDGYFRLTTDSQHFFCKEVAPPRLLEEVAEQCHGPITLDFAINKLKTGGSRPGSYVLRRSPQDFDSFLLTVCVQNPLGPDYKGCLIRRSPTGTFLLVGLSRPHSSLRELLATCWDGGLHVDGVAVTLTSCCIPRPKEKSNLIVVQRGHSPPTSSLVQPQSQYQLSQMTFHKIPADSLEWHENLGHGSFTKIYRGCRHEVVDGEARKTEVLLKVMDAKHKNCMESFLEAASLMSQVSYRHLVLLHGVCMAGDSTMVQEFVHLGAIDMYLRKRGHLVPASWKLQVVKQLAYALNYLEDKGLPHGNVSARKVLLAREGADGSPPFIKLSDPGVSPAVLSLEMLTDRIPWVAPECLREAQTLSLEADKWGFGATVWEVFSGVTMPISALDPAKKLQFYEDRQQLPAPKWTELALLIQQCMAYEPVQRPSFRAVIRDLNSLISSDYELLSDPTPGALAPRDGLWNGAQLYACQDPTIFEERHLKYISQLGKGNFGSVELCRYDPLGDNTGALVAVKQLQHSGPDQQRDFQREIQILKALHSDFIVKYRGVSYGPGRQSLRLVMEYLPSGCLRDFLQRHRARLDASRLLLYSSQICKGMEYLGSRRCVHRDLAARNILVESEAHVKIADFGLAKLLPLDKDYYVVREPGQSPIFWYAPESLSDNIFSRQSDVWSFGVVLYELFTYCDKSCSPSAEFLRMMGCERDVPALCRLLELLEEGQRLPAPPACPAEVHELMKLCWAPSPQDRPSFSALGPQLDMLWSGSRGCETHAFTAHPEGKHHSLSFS

Common to all, as to format: biochemical
One assay deals with JAK1 (Homo sapiens (Human), UniProt P23458). Put plainly: Enzyme assay (Assay Example^a 1), JAK1. The following applies: for IC50: ATP 100 μM, Table^a 154, read-out: IC50 (μM) JAK1.
The target of another assay is JAK2 (Homo sapiens (Human), UniProt O60674). In words: Enzyme assay (Assay Example^a 1), JAK2. The following applies: for IC50: read-out: IC50 (μM) JAK2.
For a further assay, the target named is Tyk2 (Homo sapiens (Human), UniProt P29597). In words: Enzyme assay (Assay Example^a 1), Tyk2. The following applies: for IC50: ATP 100 μM, read-out: IC50 (μM) TYK2.
In another assay the target is JAK3 (Homo sapiens (Human), UniProt P52333). In words: Enzyme assay (Assay Example^a 1), JAK3. The following applies: for IC50: read-out: IC50 (μM) JAK3.

Usually IC50 stands for the concentration that inhibits the measured activity by half. Take `FC(F)(F)c1ccc(CN2CCC(c3nnn4cnc5[nH]ccc5c34)CC2)o1` [compound 143]: the IC50 stood at 0.0025 µM on JAK1, 0.0056 µM at JAK2 and 0.12 µM on Tyk2 (Table^a 154).
As to `FC1(F)CCN(C[C@H]2CC[C@H](c3nnn4cnc5[nH]ccc5c34)CC2)CC1` [compound 97], the results for the IC50 on JAK1, at JAK2 and on Tyk2 (Table^a 154) were 0.021 µM, 0.1 µM and over 1 µM, respectively.
Consider `OC[C@H]1CC[C@@H](c2nnn3cnc4[nH]ccc4c23)CC1` [compound 401, [cis-4-(7H-Pyrrolo[3,2-e][1,2,3]triazolo[1,5-c]pyrimidin-1-yl)cyclohexyl]methanol], for which the values for the IC50 at JAK3 and at Tyk2 were 0.36 µM and 0.15 µM, respectively.
Usually pIC50 stands for −log10 of the IC50, conventionally taken in molar units. High values mean a small IC50, low ones a large IC50. `O=S(=O)(C[C@H]1CC[C@H](c2nnn3cnc4[nH]ccc4c23)CC1)c1ccccc1` [compound 364, 1-{trans-4-[(phenylsulfonyl)methyl]cyclohexyl}-7H-pyrrolo[3,2-e][1,2,3]triazolo[1,5-c]pyrimidine] showed a pIC50 at JAK3 of 6.41. Moreover, on Tyk2, the IC50 is 0.21 µM.
Regarding `OC[C@H]1CC[C@H](c2nnn3cnc4[nH]ccc4c23)CC1` [compound 141], the IC50 at JAK1 was 0.0028 µM; on JAK2 it was 0.014 µM; at Tyk2 (Table^a 154), 0.038 µM.
In the case of `O=C(c1ccc(C(F)(F)F)cc1)N1CCC(c2nnn3cnc4[nH]ccc4c23)CC1` [compound 58], the IC50 on JAK1 was 0.18 µM; on JAK2 it was 0.82 µM; at Tyk2 (Table^a 154) it was over 1 µM.
With `c1ccc(CCN[C@H]2CC[C@H](c3nnn4cnc5[nH]ccc5c34)CC2)cc1` [135b], the IC50 on JAK1 is 0.0063 µM; at JAK3 it was over 1 µM.
As to `c1ccc(CCNC2CCC(c3nnn4cnc5[nH]ccc5c34)CC2)cc1` (stereo not shown) [compound 123], the IC50 at JAK2 was 0.19 µM; on JAK3, 0.87 µM; at Tyk2 (Table^a 154), 0.23 µM.
On to `O[C@H]1CC[C@H](c2nnn3cnc4[nH]ccc4c23)CC1` [compound 81], for which the IC50 was 0.012 µM at JAK1, 0.053 µM on JAK2 and 0.15 µM on Tyk2 (Table^a 154).
With `CN(C[C@H]1CC[C@H](c2nnn3cnc4[nH]ccc4c23)CC1)c1ccc(F)cc1` [compound 102], the IC50 is 0.019 µM on JAK1, 0.15 µM at JAK2, over 1 µM at JAK3 and over 1 µM at Tyk2 (Table^a 154).
As to `O[C@H]1CC[C@@H](c2nnn3cnc4[nH]ccc4c23)CC1` [compound 83], the figures for the IC50 on JAK1, on JAK2 and on Tyk2 (Table^a 154) were 0.0091 µM, 0.048 µM and 0.096 µM, respectively.
For `c1csc(CN2CCC(c3nnn4cnc5[nH]ccc5c34)CC2)c1` [compound 148], in that order: 0.0043 µM, 0.01 µM and 0.21 µM.
Turning to `N#CCC(=O)N1CCCC(c2ncn3cnc4[nH]ccc4c23)C1` (racemic) [compound 4], the results for the pIC50 against JAK1, against JAK2 and on Tyk2 were 7.89, 7.59 and 6.64, respectively.
Turning to `N#CCCNC[C@H]1CC[C@H](c2nnn3cnc4[nH]ccc4c23)CC1` [compound 90], the IC50 on JAK1 came out at 0.0047 µM; at JAK2 it was 0.026 µM; on Tyk2 (Table^a 154), 0.044 µM.
For the compound `c1ccc(CCN[C@H]2CC[C@@H](c3nnn4cnc5[nH]ccc5c34)CC2)cc1` [135a], the IC50 at JAK1 is 0.097 µM; at JAK3, over 1 µM; at Tyk2 (Table^a 154) it was over 1 µM.
For the compound `FC(F)(F)Oc1ccc(NC[C@H]2CC[C@H](c3nnn4cnc5[nH]ccc5c34)CC2)c(Cl)c1` [compound 115], the IC50 at JAK1 was 0.13 µM; at JAK2, 0.4 µM; at Tyk2 (Table^a 154) it was over 1 µM.
With `CC1(C)CN(C[C@H]2CC[C@H](c3nnn4cnc5[nH]ccc5c34)CC2)C1` [compound 96], the IC50 was 0.027 µM at JAK1, 0.21 µM at JAK2, over 1 µM on JAK3 and over 1 µM on Tyk2 (Table^a 154).
As to `Cc1noc(C)c1CN1CCC(c2nnn3cnc4[nH]ccc4c23)CC1` [compound 36], the results for the IC50 on JAK1, at JAK2 and on Tyk2 (Table^a 154) were 0.073 µM, 0.18 µM and over 1 µM, respectively.
For the compound `FC(F)(F)c1ccc(CN2CCCC(c3nnn4cnc5[nH]ccc5c34)C2)cc1` (racemic) [compound 23], on JAK3, the pIC50 is under 6.00. At Tyk2 (Table^a 154), the IC50 is over 1 µM.

The values are drawn from US9216999B2, “Substituted pyrrolo[2,3-h][1,6]naphthyridines and compositions thereof as JAK inhibitors” (priority 2011, dated 2015).
